Experimental data as given in PubChem BioAssay AID1224863 (Southern Research Institute, 2016).
About 15 (0.1%) of roughly 10,000 compounds were called active.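 Rule for the calls: active = highest signal at least 8 times the median of untreated cell-only control wells at some dose; inactive = the rest.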 Not all results are given here.

By UniProt entry, the sequences of proteins in these tests, tags left out. Chains listed by the source or under a name are the forms on record and can include a tag or linker.
UniProt P13569, with tags, fused parts or gaps F508del: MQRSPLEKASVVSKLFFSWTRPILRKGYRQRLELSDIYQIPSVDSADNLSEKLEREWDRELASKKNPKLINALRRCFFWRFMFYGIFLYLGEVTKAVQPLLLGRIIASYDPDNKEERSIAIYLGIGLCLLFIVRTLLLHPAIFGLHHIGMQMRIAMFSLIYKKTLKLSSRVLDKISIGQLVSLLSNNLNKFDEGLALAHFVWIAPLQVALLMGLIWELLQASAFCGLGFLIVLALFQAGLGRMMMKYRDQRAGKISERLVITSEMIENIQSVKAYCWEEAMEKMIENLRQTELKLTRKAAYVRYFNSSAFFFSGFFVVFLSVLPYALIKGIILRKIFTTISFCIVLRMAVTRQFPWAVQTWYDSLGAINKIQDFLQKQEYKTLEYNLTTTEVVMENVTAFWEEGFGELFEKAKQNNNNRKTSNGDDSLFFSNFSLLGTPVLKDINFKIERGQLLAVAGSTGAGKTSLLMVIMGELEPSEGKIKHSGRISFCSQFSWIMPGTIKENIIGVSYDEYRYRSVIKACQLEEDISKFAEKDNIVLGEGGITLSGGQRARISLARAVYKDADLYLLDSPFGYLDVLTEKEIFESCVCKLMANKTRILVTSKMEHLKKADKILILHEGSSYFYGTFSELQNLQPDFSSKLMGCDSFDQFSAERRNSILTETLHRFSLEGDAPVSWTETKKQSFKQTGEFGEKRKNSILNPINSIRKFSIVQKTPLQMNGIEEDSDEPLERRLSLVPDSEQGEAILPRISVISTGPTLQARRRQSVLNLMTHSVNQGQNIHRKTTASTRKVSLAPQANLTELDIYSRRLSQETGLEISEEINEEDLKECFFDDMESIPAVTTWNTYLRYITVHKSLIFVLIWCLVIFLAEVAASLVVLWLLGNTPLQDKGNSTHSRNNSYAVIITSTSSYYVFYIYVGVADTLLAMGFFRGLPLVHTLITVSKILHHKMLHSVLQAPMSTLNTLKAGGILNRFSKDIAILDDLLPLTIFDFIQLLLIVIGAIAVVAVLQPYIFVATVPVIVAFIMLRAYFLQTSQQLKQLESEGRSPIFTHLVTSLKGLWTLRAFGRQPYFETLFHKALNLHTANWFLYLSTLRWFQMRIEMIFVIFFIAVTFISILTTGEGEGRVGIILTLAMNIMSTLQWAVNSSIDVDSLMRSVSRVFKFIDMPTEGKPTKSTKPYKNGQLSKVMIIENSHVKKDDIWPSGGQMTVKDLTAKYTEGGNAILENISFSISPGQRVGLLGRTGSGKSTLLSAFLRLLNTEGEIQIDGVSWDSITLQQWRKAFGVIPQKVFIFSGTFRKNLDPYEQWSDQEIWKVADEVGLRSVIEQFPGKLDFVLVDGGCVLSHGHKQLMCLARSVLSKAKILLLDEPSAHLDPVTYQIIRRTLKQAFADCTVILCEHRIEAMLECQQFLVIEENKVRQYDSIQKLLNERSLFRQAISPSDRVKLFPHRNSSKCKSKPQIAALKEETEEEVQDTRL

Assays:
[1] = total CFTR protein upregulators, primary screen, cell-based, HeLa F508del-CFTR, immunofluorescence, viability (AID 1224863); settings: 24 h, stronger effect = higher value; min viability: measured here: HeLa viability, alamarBlue, dose 20, library dosed in µg/mL unless noted; viability: measured here: primary viability 10 ug/mL, library dosed in µg/mL unless noted;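 for fold increase: total CFTR protein by anti-CFTR immunofluorescence in fixed cells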
[2] = molecular target: Cystic fibrosis transmembrane conductance regulator (Homo sapiens) (UniProt P13569); test: as above; settings: 24 h; fold increase: measured here: primary screen 10 ug/mL, library dosed in µg/mL, stronger effect = higher value unless noted; max fold increase: dose 10, library dosed in µg/mL, stronger effect = higher value unless noted; outcome: library dosed in µg/mL unless noted

SMILES | viability [1] [%] | fold increase [2] | outcome [2]
Cc1noc2nc(-c3ccco3)cc(C(=O)OCc3cc(=O)n4cc(Cl)ccc4n3)c12 | 101 | 1.11 | inactive
CC1(c2ccccc2)NC(=O)N(Cc2cc(=O)n3ccccc3n2)C1=O (stereo not given) | 91 | 1.06 | inactive
Cn1ncc2c(NCC3(N4CCCCC4)CCCCC3)ncnc21 | 96 | 1.05 | inactive
CC(C(=O)NC1CCCCCC1)N1CCN(C(C)C(=O)NC2CC2)CC1 (stereo not given) | 95 | 1.06 | inactive
Fc1ccc(-c2[nH]ncc2CNCc2ccccc2Cn2cncn2)cc1 | 104 | 1.01 | inactive
CC(c1nnc(-c2cccs2)o1)N1CCC(O)CC1 (stereo not given) | 99 | 1.04 | inactive
Cn1cc(S(=O)(=O)N2CCN(Cc3nc(N)nc(N)n3)CC2)cc1C(N)=O | 91 | 0.98 | inactive
Cn1c(SCc2ccc(-n3cccn3)cc2)nc2ccccc21 | 92 | 0.97 | inactive
Cc1sc2nc(CN3CCCC3)nc(-n3nnc(-c4cccnc4)n3)c2c1C | 84 | 1.04 | inactive
Cc1cc(C)cc(-c2nnc(SC3CCCCC3=O)o2)c1 (stereo not given) | 112 | 1.07 | inactive
CC1Oc2ccc(NC(=O)C3=NN(C)C(=O)CC3)cc2NC1=O (stereo not given) | 100 | 0.99 | inactive
Cc1ccc(C)c(CS(=O)(=O)Cc2ccccc2SC(F)F)c1 | 86 | 1.03 | inactive
Cc1oc(C)c(C(=O)Nc2ncn[nH]2)c1C | 86 | 0.86 | inactive
CC1CCC(NC(=O)c2ccc([N+](=O)[O-])s2)CC1 (stereo not given) | 77 | 0.76 | inactive
Cc1ccc(-n2nnnc2SCc2cn3cccc(C)c3n2)cc1C | 79 | 0.98 | inactive
C=CCOc1ccc(/C(O)=C2/C(=O)C(=O)N(CCCN(C)C)C2c2cccc(Br)c2)cc1 (stereo not given) | 91 | 1.07 | inactive
O=S(=O)(c1ccc2ccccc2c1)N1CCN(S(=O)(=O)c2ccccc2Cl)CC1 | 94 | 1.06 | inactive
Clc1ccc(-c2nc(Sc3ccccc3Cl)c3c4c(sc3n2)CCC4)cc1 | 91 | 1.15 | inactive
Cc1c(C2Nc3ccccc3C(=O)N2c2ccc3c(c2)OCO3)cc(C#N)n1C (stereo not given) | 100 | 1.05 | inactive
O=C(O)CN1C(=O)COc2cc(Br)ccc21 | 101 | 1.01 | inactive
NC1CC(=O)N(c2ccc(Oc3ccccc3)cc2)C1 (stereo not given) | 60 | 0.71 | inactive
Cc1cn2nc(NC3CCCC3)sc2n1 | 96 | 0.88 | inactive
COc1cc(OC)c(CNC(C)c2ccc(F)cc2F)c(OC)c1 (stereo not given) | 103 | 1.05 | inactive
CSc1ccc(OCC(=O)c2[nH]c(C)c(C(C)=O)c2C)cc1 | 77 | 0.86 | inactive
COCCn1c(SCC(=O)c2[nH]c(C)c(C(C)=O)c2C)nc2sc3c(c2c1=O)CCCC3 | 102 | 1.01 | inactive
CCCn1c(N)c(C(=O)CN2CCC(O)CC2)c(=O)[nH]c1=O | 91 | 1.07 | inactive
COC(=O)c1ccc(C2NC(=O)NC(C)=C2C(=O)c2ccc(Cl)cc2)cc1 (stereo not given) | 87 | 1.02 | inactive
N#CCCN1CCN(C(=O)C23CC4CC(CC(C4)C2)C3)CC1 | 86 | 1.05 | inactive

SMILES | viability [1] [%] | fold increase [2] | outcome [2]
Cc1nn(Cc2ccccc2Cl)c(C)c1CN(C)c1ccc2nnnn2n1 | 101 | 0.94 | inactive
O=C1c2ccccc2S(=O)(=O)NN1Cc1ccc(Br)cc1 | 110 | 0.99 | inactive
Cc1ccc(-c2nnc(NCCC(C)C)c3ccccc23)cc1C | 97 | 0.94 | inactive
CSc1ncccc1C(=O)NC1CC2CC1C1CCCC21 (stereo not given) | 103 | 1.14 | inactive
C=CCNC(=O)NC(=O)CN(Cc1nccn1C(F)F)C1CC1 | 83 | 1.18 | inactive
C=CCn1c(SCC)nnc1-c1ccc([N+](=O)[O-])cc1 | 88 | 1.02 | inactive
CC(OC(=O)C1=Cc2ccccc2OC1)C(=O)C12CC3CC(CC(C3)C1)C2 (stereo not given) | 91 | 1.1 | inactive
O=C1C2CCCCC2C(=O)N1CC(O)COCc1ccc2c(c1)OCO2 (stereo not given) | 99 | 1.1 | inactive
C=CCNCC(F)(F)F | 95 | 1.07 | inactive
O=S(=O)(C1=Cc2ccccc2CC1)N1CCCC1c1ccc(F)cc1 (stereo not given) | 97 | 0.99 | inactive
CCCN(CC1CC1)C(=O)CSc1nc(C)nc2sc3c(c12)CCCC3 | 81 | 0.94 | inactive
CC1CCCN(S(=O)(=O)N2CCC(N3CCCc4ccccc43)CC2)C1 (stereo not given) | 82 | 0.89 | inactive
O=C(C1CCCO1)N1CCN(Cc2ccc3c(c2)CCO3)CC1 (stereo not given) | 90 | 1.05 | inactive
O=c1oc2ccc([N+](=O)[O-])cc2n1CN1CCN(c2cccc(Cl)c2)CC1 | 82 | 0.77 | inactive
Cc1ccc(C2(C)NC(=O)N(Cc3coc(-c4ccc(C)cc4C)n3)C2=O)cc1 (stereo not given) | 85 | 0.96 | inactive
O=S(=O)(Nc1cc2c(cc1Br)OCCO2)c1ccc(Br)cc1 | 88 | 1.03 | inactive
Cc1cc(C)n2c(SCc3cc(-c4ccccc4)on3)nnc2n1 | 97 | 1.06 | inactive
CCCCS(=O)(=O)Nc1ccc(F)c(N)c1 | 102 | 0.96 | inactive
O=C(CNC(=O)c1ccco1)NC1CCC2CCCCC2C1 (stereo not given) | 75 | 1.02 | inactive
Cc1cc(C(=O)CSc2nnc(-c3ccoc3C)o2)c(C)s1 | 84 | 0.89 | inactive
O=C(CSc1nnnn1C1CC1)NC(c1cccs1)C1CCCC1 (stereo not given) | 90 | 0.94 | inactive
CCOC(=O)c1oc2ccccc2c1COC(=O)c1ccc2c(c1)CCC(=O)N2 | 81 | 1 | inactive
CCn1cnnc1SCCCCN1C(=O)c2ccccc2C1=O | 106 | 1.03 | inactive
CC(=O)N1C=Cc2ccccc2C1CC(=O)Nc1cc2c(cc1Cl)OCO2 (stereo not given) | 89 | 0.97 | inactive
O=S(=O)(Cc1ccc(F)cc1Cl)C12CC3CC(CC(C3)C1)C2 | 104 | 1.1 | inactive
CCOCCCNc1nnc(SC(C(=O)NC(N)=O)C(C)C)s1 (stereo not given) | 97 | 0.95 | inactive
Cc1nc(CNC(C(=O)O)C(C)C)cs1 (stereo not given) | 88 | 1.06 | inactive
